# Apparent affinities of Ab-14 variants for a coronavirus HR2 peptide

Target peptide (SARS-CoV-2 spike, HR2 region): PDVDLGDISGINAS

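Phage display of a naive human antibody library on the peptide gave the parent. These sequences belong to a second round, designed from the earlier measurements on random variants of the parent. Several design methods are mixed in this list. The scFvs were displayed on barcoded MATa yeast, the peptide on MATalpha yeast. After mating in shaken culture at 30 °C for 16 h, diploids were selected and their barcode pairs sequenced. Scores were corrected for input abundance and mapped to Kd with protein pairs of known affinity run in the same pool. Mating was done six times.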

Each scFv is VH, a (GGGGS)3 linker, VL, as in the parent Ab-14, and differs from it in the CDRs of the light chain only.
VH: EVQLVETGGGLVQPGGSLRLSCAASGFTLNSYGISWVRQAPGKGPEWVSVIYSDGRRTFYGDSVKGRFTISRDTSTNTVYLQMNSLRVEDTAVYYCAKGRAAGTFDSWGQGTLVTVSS
VL: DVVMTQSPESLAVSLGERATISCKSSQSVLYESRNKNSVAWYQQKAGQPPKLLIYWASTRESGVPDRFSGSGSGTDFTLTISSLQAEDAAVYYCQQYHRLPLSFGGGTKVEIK

Substitutions are numbered in sequence along the VL above, starting at 1 (not Kabat).
This list holds designs with at most six substitutions.
The read-out is the apparent dissociation constant on a log10 scale (nM): the lower, the stronger.
The mean shown is taken over the replicates in which the pair was detected.
Where no diploid with the target was found in any replicate, the entry reads "nd": below detection, most likely a poor binder, though not proof of it.
Entries are sorted by rising average, undetected variants last.
Three control strains display no target. For all light chain designs, 4% of the pairings with them gave a signal, with a median of 2.64 and one signal in twenty below 1.59, so weak values seen in few replicates may be background. Also given: how often the same scFv was detected with the empty control strains.
The authors averaged sequences with at least three values out of six and counted those with two or fewer as poor binders.
Values of this round are not directly comparable with the first-round values of the same sequences.

Variant S25L S38N W56N T59K showed -0.45 (6 of 6 replicates; controls 1 of 18). For S25L S26P V29Q S38A W56N, the assay gave -0.33 (6 of 6 replicates; controls 0 of 18). Variant S25V W56Q S103F showed -0.31 (6 of 6 replicates; controls 3 of 18). Variant S25L V29W L30M Y31G W56Q S62Q showed -0.25 (6 of 6 replicates; controls 2 of 18). With S25L S26Q L30P W56E the result was -0.24 (6 of 6 replicates; controls 0 of 18). Variant V29E W56E gave -0.22 (6 of 6 replicates; controls 0 of 18).

Variant S25Y S26E W56N showed -0.19 (6 of 6 replicates; controls 2 of 18). For S26D S28G V29A L30D W56G, the assay gave -0.15 (6 of 6 replicates; controls 1 of 18). For Y31P W56D, the assay gave -0.14 (6 of 6 replicates; controls 4 of 18). Variant S25L S26Q S28A V29E Y31G W56S gave -0.12 (6 of 6 replicates; controls 0 of 18). Variant S25M V29W W56N T59Q showed -0.05 (6 of 6 replicates; controls 1 of 18). For S25L S26Q W56N E61L Q96D, the assay gave -0.02 (6 of 6 replicates; controls 0 of 18).

With S25W L30M Y31G R34V W56N the result was -0.02 (6 of 6 replicates; controls 1 of 18). Variant S25H N37D W56A showed 0.04 (6 of 6 replicates; controls 0 of 18). Variant V29Y W56Q showed 0.18 (6 of 6 replicates; controls 0 of 18). For S25F Q27D Y31L N35D S38R W56N, the assay gave 0.21 (6 of 6 replicates; controls 0 of 18). Variant S26G V29F W56G T59M S62E showed 0.23 (6 of 6 replicates; controls 1 of 18). Variant S25Q S38A W56D R99W gave 0.33 (6 of 6 replicates; controls 0 of 18).

Variant W56A S62L H98A showed 0.33 (6 of 6 replicates; controls 0 of 18). For S25L W56N T59Q E61L, the assay gave 0.35 (6 of 6 replicates; controls 0 of 18). With S26Q Y31N R34F W56R S103E the result was 0.45 (6 of 6 replicates; controls 0 of 18). For S26P Y31D, the assay gave 0.95 (4 of 6 replicates; controls 0 of 18). Variant S26L S28E V29W W56H S62Q gave 0.96 (6 of 6 replicates; controls 2 of 18). Variant S33N W56Q gave 0.97 (6 of 6 replicates; controls 0 of 18).

For S28G L30M R34A W56S S103W, the assay gave 1.22 (6 of 6 replicates; controls 1 of 18). For L30R S33N N35T, the assay gave 1.23 (6 of 6 replicates; controls 0 of 18). Variant K24D N37H W56A T59A showed 1.24 (6 of 6 replicates; controls 0 of 18). For Q27I V29E R34M W56E, the assay gave 1.67 (6 of 6 replicates; controls 3 of 18). Variant S25F Q27H L30D Y31S S38D Q96F gave 1.68 (4 of 6 replicates; controls 3 of 18). For L30W S62V S103I, the assay gave 1.78 (2 of 6 replicates; controls 0 of 18).

Variant K24M S33A W56S gave 1.79 (5 of 6 replicates; controls 0 of 18). With L30W S62E the result was 1.91 (5 of 6 replicates; controls 0 of 18). Variant Y31V R34N S62D P101E showed 1.96 (4 of 6 replicates; controls 0 of 18). Variant L30Y Y31A S62P Q96K P101N L102T showed 2.31 (6 of 6 replicates; controls 2 of 18). With Q27P V29C the result was 2.63 (6 of 6 replicates; controls 2 of 18). With V29Q N35K R60L the result was nd (0 of 6 replicates; controls 0 of 18).

Variant S25W V29W W56T Y97G showed nd (0 of 6 replicates; controls 0 of 18). Variant S38C E61V L102T showed nd (0 of 6 replicates; controls 1 of 18). Variant L100Q gave nd (0 of 6 replicates; controls 0 of 18). Variant K24S S25F S33D N35T W56N gave nd (0 of 6 replicates; controls 0 of 18).

The first 4 entries again:

| changes | log10 Kd (nM), mean | detected | empty controls |
|---|---|---|---|
| S25L S38N W56N T59K | -0.45 | 6 of 6 | 1 of 18 |
| S25L S26P V29Q S38A W56N | -0.33 | 6 of 6 | 0 of 18 |
| S25V W56Q S103F | -0.31 | 6 of 6 | 3 of 18 |
| S25L V29W L30M Y31G W56Q S62Q | -0.25 | 6 of 6 | 2 of 18 |

Source: Li et al. 2023 (doi:10.1038/s41467-023-39022-2), MIT Lincoln Laboratory and A-Alpha Bio; data file from the FLAb repository.